Earlier results, collected in patent US20110052722A1, “Toleration Iron Supplement Compositions” (priority 2005, published 2011).

Settings: total administration should not exceed; cited from earlier work

## polysaccharide iron complex [PIC]
  toxicity limits: about 5000 mg/kg
